Measurements published in US12319708B2, “Agonists of peroxisome proliferator-activated receptor alpha (PPARα) and methods of use” (The Board of Regents of the University of Oklahoma, priority 2018, dated 2025).

How the values were obtained:
hPPARα [1] = target: T1, hPPARα (Homo sapiens, UniProt Q07869); conditions: known property of reference agonist; cited from earlier work
T1 sequence (Q07869 1-468): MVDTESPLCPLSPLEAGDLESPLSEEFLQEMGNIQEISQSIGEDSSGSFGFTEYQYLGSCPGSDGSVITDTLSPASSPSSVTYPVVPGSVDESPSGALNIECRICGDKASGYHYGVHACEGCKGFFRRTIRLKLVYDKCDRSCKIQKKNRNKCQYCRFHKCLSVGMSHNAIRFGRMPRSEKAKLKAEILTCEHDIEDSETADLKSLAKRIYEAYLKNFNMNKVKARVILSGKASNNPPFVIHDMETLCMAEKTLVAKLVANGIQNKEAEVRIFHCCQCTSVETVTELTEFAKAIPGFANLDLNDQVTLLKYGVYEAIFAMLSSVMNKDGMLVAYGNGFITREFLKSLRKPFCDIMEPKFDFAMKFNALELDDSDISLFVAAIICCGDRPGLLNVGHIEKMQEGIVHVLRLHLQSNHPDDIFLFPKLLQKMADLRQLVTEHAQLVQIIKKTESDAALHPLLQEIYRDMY

hPPARα [2] = target: T1, hPPARα; experiment: PPARα luciferase cell reporter assay (Indigo Biosciences); assay type: cell-based

In the case of `Cc1nc(-c2ccc(C(F)(F)F)cc2)sc1C(=O)NCc1ccc(OC(C)(C)C(=O)O)cc1` [GW590735, reference compound], the “selectivity for PPARα over PPARγ and PPARδ” value (hPPARα [1]) is listed as no less than 500 fold, the “ratio (5/50): ratio of relative light unit (RLU) signal at 5 and 50 μM” value (hPPARα [2]; 5 and 50 μM compound concentrations) is listed as 1.0 and the EC50 (hPPARα [2]; luciferase reporter cell-line, triplicate, single experiment, read-out: hPPARα EC50) is listed as 0.012 µM. The EC50 (hPPARα [2]; mean ± SEM of at least two separate experiments in triplicate (Table 9), read-out: EC50 hPPARα) was 0.015 ± 0.002 µM and the “fold-signal: ratio of maximal signal strength to that obtained with GW590735” value (hPPARα [2]; relative to GW590735) was 1.0.

Where two headings read alike, the source gives them in different places.
